This note sets out measurements from patent publication US20240374573A1, “IMIDAZOLE CONTAINING COMPOUNDS, DERIVATIVES THEREFORE, AND USES THEREOF” (AglaeaPharma Inc., priority 2023, published 2024).

By UniProt entry, the sequences of proteins in these tests, tags left out.
UniProt P08913, whole entry: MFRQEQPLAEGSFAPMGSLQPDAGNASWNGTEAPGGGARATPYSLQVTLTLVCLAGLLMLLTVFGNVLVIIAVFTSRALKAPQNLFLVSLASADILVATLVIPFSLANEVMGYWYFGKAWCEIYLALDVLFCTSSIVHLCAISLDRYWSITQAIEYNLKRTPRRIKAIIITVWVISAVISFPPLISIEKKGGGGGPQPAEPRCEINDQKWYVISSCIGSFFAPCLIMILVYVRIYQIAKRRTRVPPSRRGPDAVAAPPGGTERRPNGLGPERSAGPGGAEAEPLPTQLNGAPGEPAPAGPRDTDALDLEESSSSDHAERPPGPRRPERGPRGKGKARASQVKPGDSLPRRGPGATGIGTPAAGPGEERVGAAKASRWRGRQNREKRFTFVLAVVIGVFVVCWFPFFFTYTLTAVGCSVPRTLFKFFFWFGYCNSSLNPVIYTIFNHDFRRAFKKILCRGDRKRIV

This experiment addresses α2AAR (α2A-adrenergic receptor) (Homo sapiens, UniProt P08913). Briefly: α2AAR FLIPR assay (agonist activity). The experiment is classed as cell-based. The note with it: read-out: α2A agonist activity (EC50), α2AAR cell line hosted in HEK293 cells, tested form: TFA.

As usually defined, the EC50 is the concentration needed to bring the measured effect to its halfway point. Take `Cc1cccc(C(c2cccc(NC(=O)CC3CCOC3)c2)c2c[nH]cn2)c1C` (single isomer, unassigned): the EC50 is 0.01 to 0.05 µM.
